The entries are a selection whose mix differs from that of the whole data set. Records with an inconclusive call do not appear. Entries that show only a call come without a potency. The source made the active and inactive calls. Calls follow the shape of the dose curve; as a rule, active = well fitted inhibition curve with a large enough effect; inconclusive = small, poorly fitted or top-dose-only effect; inactive = no such curve, though single readings can be large or run the other way.

The assay can be described thus: Primary qHTS for Inhibitors of ATXN expression. Also: nearly all actives have a fitted effect of over 55% in size. Particulars: HEK-293 ATXN2-luciferase reporter, luminescence, 24 h; series mostly up to 57 µM.
Consider `CCOC(=O)C(CC)C1=NC(C)(C)Cc2ccccc21.O=[N+]([O-])c1cc([N+](=O)[O-])c(O)c([N+](=O)[O-])c1` (stereo not given), for which the Potency entry is “inactive”.

For `CN(C)C1(CNC(=O)c2cccc(C#N)c2)CCCCC1`, the Potency entry was “inactive”.

Regarding `CCCN1CCC(Nc2cc(OC)cc(OC)c2)CC1`, the Potency result is “inactive”.

For `O=C(NCC1(N2CCOCC2)CCCCC1)c1ccccc1`, the Potency entry is “inactive”.

Turning to `c1ccc(CN2CCC(Nc3ccccc3)CC2)cc1`, the Potency result is “inactive”.

As for `CCC(c1nnnn1C1CCCCC1)N1CCC(n2c(=O)[nH]c3ccccc32)CC1` (stereo not given), the Potency result is “inactive”.

For the compound `CC(=O)N(c1ccccc1)C1CCNCC1`, the Potency result is “inactive”.

As to `COc1cccc(C(c2nnnn2C2CCCCC2)N2CCC(n3c(=O)[nH]c4ccccc43)CC2)c1OC` (stereo not given), the Potency result was “inactive”.

Take `CN(C)C1(CNC(=O)c2ccc(C(C)(C)C)cc2)CCCCC1`: the Potency result is “inactive”.

For `COc1cc(OC)cc(C(=O)NCC2(N3CCCCC3)CCCCC2)c1`, the Potency result was “inactive”.

On to `Fc1ccccc1NC1CCN(Cc2ccccc2)CC1`, for which the Potency result was “inactive”.

With `Cc1ccc(C(=O)NCC2(N3CCCCC3)CCCCC2)o1`, the Potency result is “inactive”.

In the case of `Cc1ccc(NC2(C#N)CCN(Cc3ccccc3)CC2)cc1`, the Potency result was “inactive”.

Regarding `CC(C)(C)n1nnnc1C(c1ccnc2ccccc12)N1CCC(n2c(=O)[nH]c3ccccc32)CC1` (stereo not given), the Potency entry was “inactive”.

As for `COc1ccc(C(c2nnnn2C2CCCCC2)N2CCC(n3c(=O)[nH]c4ccccc43)CC2)cc1` (stereo not given), the Potency entry was “inactive”.

Take `CCN1CCC(Nc2cccc(F)c2)CC1`: the Potency entry was “inactive”.

For the compound `Cc1ccccc1NC1(C#N)CCN(Cc2ccccc2)CC1`, the Potency entry was “inactive”.

`Cc1ccccc1C(=O)NCC1(N(C)C)CCCCC1`: the Potency entry is “inactive”.

Consider `CC(C)(C)c1ccc(C(=O)NCC2(N3CCOCC3)CCCCC2)cc1`, for which the Potency entry is “inactive”.

As to `O=C(NCC1(N2CCCCC2)CCCCC1)c1ccco1`, the Potency entry was “inactive”.

On to `CN1CCC(Nc2ccc(F)c(Cl)c2)CC1`, for which the Potency result was “inactive”.

For `CCOc1ncccc1C(=O)NCC1(N2CCOCC2)CCCCC1`, the Potency result was “inactive”.

Take `NN(c1ccccc1)C1CCN(CCc2ccccc2)CC1`: the Potency result was “inactive”.

Take `CC(C)(C)OC(=O)N1CCC(Nc2ccccc2)CC1`: the Potency result was “inactive”.

As to `CCCOc1ccc(C(=O)NCC2(N(C)C)CCCCC2)cc1`, the Potency result is “inactive”.

On to `COc1cccc(C(=O)N(c2cc(C)cc(C)c2)C2CCN(C(=O)OC(C)(C)C)CC2)c1`, for which the Potency entry is “inactive”.

For `COc1cc(C(=O)NCC2(N3CCOCC3)CCCCC2)cc(OC)c1OC`, the Potency result was “inactive”.

For `COc1cccc(C(c2nnnn2C2CCCC2)N2CCC(n3c(=O)[nH]c4ccccc43)CC2)c1OC` (stereo not given), the Potency result is “inactive”.

As for `COc1cc(OC)cc(C(=O)NCC2(N3CCOCC3)CCCCC2)c1`, the Potency result is “inactive”.

Consider `CCC(CO)(C(=O)OC1CN2CCC1CC2)c1ccccc1` (stereo not given), for which the Potency entry was “inactive”.

The record behind these values is PubChem BioAssay AID1745845 (National Center for Advancing Translational Sciences (NCATS), 2022).
